Reference: ChEMBL document CHEMBL6127080, “Design, synthesis and biological evaluation of novel diphenylamine analogues as NLRP3 inflammasome inhibitors” (Bioorg Med Chem, 2024)

Sequences of proteins named here, by UniProt entry; tags and fusion partners are left off.
UniProt Q8R4B8, whole entry: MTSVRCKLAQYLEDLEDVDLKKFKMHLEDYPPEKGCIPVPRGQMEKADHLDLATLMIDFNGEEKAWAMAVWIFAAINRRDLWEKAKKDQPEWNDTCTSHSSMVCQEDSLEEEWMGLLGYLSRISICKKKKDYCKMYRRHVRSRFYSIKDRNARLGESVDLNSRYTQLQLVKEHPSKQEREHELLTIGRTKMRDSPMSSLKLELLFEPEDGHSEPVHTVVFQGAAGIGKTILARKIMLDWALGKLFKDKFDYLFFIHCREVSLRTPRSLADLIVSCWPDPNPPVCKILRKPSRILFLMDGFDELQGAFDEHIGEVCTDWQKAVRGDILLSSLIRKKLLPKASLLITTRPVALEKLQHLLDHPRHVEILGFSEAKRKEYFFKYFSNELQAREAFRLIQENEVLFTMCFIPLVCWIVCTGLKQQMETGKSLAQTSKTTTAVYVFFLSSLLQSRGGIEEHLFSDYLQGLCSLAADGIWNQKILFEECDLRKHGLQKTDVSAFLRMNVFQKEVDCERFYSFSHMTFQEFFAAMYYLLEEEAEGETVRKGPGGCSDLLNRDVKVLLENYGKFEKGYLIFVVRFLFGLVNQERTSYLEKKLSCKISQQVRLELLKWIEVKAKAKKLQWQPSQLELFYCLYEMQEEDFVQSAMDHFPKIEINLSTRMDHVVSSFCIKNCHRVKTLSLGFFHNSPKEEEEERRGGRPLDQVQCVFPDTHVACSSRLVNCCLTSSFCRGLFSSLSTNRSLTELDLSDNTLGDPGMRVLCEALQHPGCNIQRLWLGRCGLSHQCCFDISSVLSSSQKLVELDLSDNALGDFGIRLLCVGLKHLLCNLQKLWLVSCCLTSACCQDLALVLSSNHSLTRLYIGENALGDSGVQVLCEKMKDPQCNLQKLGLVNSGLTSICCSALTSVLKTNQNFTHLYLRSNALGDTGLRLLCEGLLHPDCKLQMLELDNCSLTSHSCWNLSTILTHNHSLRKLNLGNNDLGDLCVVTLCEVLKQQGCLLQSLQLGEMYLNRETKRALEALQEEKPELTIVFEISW

Key:
[1] = biological target: NACHT, LRR and PYD domains-containing protein 3 (Mus musculus) (UniProt Q8R4B8); assay: Inhibition of NLRP3 inflammasome activation in mouse […] cells assessed as reduction in LPS/ATP-induced IL-1 beta release at 1 uM pretreated with LPS for 4.5 hrs followed by compound addition for 30 mins prior to ATP addition and measured after 30 mins by ELISA relative to control; type: cell-based; conditions: J774.A1, time 5.5 hrs
[2] = biological target: NACHT, LRR and PYD domains-containing protein 3 (Mus musculus) (UniProt Q8R4B8); assay: Inhibition of NLRP3 inflammasome activation in mouse […] cells assessed as reduction in LPS/ATP-induced IL-1 beta release at 10 uM pretreated with LPS for 4.5 hrs followed by compound addition for 30 mins prior to ATP addition and measured after 30 mins by ELISA relative to control; type: cell-based; conditions: J774.A1, time 5.5 hrs

Work on `CCC(=O)Nc1ccc(-c2ccccc2N(Cc2cc(Cl)ccc2OCCOC)C(=O)c2ccc(F)cc2)cc1` yielded an inhibition [1] of 84.5% and an inhibition [2] of 93.3%.
